Results reported in patent publication US8227452B2, “Use of a steroid prodrug for the treatment of disease of the posterior segment of the eye” (Novagali Pharma SA, priority 2006, dated 2012).

Experiment: Intraocular pharmacokinetics of dexamethasone palmitate and dexamethasone following intravitreal administration
From the text: Analytes and internal standard (roxithromycine) were extracted from the tissues using acetonitrile and separated by reverse phase liquid chromatography with a C8 column and a gradient mobile phase. […] The unweighed linear model was applied.

[1] = Day 1 after single intravitreal injection of 100 μL 0.8% dexamethasone palmitate emulsion, rabbits
[2] = Day 7 after single intravitreal injection of 100 μL 0.8% dexamethasone palmitate emulsion, rabbits
[3] = Day 14 after single intravitreal injection of 100 μL 0.8% dexamethasone palmitate emulsion, rabbits
[4] = Day 28 after single intravitreal injection of 100 μL 0.8% dexamethasone palmitate emulsion, rabbits
[5] = Day 60 after single intravitreal injection of 100 μL 0.8% dexamethasone palmitate emulsion, rabbits

For dexamethasone palmitate [DP], the “Prodrug remaining in retina and choroid” value (2 months following IVT injection of 800 μg of prodrug) was “considerable amounts”, the “Concentration in choroid, mean” value [1] was 191 nmol/g and the “Concentration in retina, mean” value [1] was 106 nmol/g. The “Concentration in choroid, mean” value [2] was 103 nmol/g, the “Concentration in retina, mean” value [2] was 93 nmol/g and the “Concentration in choroid, mean” value [3] was 22 nmol/g. For the same substance, the “Concentration in retina, mean” value [3] was 136 nmol/g, the “Concentration in choroid, mean” value [4] was 143 nmol/g and the “Concentration in retina, mean” value [4] was 146 nmol/g. For the same substance, the “Concentration in aqueous humor, mean” value [5] was 0 nmol/g, the “Concentration in choroid, mean” value [5] was 52 nmol/g and the “Concentration in retina, mean” value [5] was 55 nmol/g. For the same substance, the “Release of active drug after intraocular (intravitreal) injection of the prodrug” value (intraocular, more especially intravitreal, injections) was “in-situ release of dexamethasone”.
